The record followed here is PMC8278646 (Microbial Cell Factories, 2021).

Amino acid sequences for entries named in this document (tags omitted).
UniProt P01031, whole entry, looked up: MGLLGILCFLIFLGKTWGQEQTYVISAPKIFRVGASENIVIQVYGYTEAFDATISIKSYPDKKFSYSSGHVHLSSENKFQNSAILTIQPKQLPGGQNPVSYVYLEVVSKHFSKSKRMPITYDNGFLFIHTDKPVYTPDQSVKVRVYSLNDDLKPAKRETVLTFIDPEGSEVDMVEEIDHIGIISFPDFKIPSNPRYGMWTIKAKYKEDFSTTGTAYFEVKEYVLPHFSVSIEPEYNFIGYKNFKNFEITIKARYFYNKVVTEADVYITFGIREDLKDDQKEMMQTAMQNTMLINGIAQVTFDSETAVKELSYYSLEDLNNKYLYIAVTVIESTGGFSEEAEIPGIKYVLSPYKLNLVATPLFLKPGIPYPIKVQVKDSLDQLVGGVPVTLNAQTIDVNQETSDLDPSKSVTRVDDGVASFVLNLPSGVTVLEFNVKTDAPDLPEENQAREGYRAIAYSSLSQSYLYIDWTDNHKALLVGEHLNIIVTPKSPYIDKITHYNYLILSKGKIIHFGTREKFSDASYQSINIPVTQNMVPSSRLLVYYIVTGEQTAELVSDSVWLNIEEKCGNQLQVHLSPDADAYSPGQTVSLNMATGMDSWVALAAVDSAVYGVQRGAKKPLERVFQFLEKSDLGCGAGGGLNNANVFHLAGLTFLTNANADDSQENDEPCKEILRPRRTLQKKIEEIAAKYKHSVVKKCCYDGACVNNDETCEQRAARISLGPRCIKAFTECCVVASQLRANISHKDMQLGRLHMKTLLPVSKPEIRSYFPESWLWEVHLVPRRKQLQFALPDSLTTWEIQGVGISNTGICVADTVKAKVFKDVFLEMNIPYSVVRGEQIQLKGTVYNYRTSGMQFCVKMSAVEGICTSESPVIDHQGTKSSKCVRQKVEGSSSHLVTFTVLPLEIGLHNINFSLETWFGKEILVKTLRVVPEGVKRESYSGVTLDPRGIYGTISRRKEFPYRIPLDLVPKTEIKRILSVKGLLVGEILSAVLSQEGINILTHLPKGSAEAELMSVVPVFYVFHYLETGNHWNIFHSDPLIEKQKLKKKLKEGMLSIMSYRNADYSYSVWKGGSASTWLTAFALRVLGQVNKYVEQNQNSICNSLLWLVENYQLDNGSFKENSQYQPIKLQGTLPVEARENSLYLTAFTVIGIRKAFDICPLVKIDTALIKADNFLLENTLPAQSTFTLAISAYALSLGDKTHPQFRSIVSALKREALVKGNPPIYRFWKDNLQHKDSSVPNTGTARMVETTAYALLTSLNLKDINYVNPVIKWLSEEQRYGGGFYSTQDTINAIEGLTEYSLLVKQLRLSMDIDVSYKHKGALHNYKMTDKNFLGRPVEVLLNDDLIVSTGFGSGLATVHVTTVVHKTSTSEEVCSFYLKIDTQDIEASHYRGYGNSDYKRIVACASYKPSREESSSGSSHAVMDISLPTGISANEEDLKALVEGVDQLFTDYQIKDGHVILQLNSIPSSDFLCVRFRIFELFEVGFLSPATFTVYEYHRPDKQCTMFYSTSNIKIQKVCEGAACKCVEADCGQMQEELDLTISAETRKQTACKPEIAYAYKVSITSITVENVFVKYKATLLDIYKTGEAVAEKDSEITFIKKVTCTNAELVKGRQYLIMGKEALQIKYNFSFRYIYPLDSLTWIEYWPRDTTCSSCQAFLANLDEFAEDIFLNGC

The assay addresses T1, Complement C5 from human serum (Homo sapiens, UniProt P01031).
T1 construct: complement C5 beta chain, human, from serum; complement C5 alpha chain, human, from serum; source: bought: Sigma-Aldrich (from human serum)
Nature of the assay: ELISA; antigen coated on MaxiSorp plates (5 ug/mL, carbonate buffer pH 9.6); antibody fragments purified from culture supernatant by cobalt-based immunoprecipitation, serially diluted; detection by anti-6x-His-tag antibody, OD450; room temperature. The following applies: both partners purified.

B1: Pexelizumab (Pex, Humanized), scFv (scFv, V domains shown)
VH: QVQLVQSGAEVKKPGASVKVSCKASGYIFSNYWIQWVRQAPGQGLEWMGEILPGSGSTEYTENFKDRVTMTRDTSTSTVYMELSSLRSEDTAVYYCARYFFGSSPNWYFDVWGQGTLVTVSS
VL: DIQMTQSPSSLSASVGDRVTITCGASENIYGALNWYQRKPGKAPKLLIYGATNLADGVPSRFSGSGSGTDFTLTISSLQPEDFATYYCQNVLNTPLTFGQGTKVEIK
notes: VH of Pexelizumab; polypeptide linker between VH and VL; VL of Pexelizumab; A spacer EEGEPK stood at the C-terminus of the leader; A further band of ca. 14 kDa (partial degradation) was in the supernatant; source: S. cerevisiae HA (also LA, MA), secreted with alpha-factor leader; used as concentrated culture supernatant and purified from it by cobalt-based immunoprecipitation; not shown: His6, …
Consider B1, for which the binding result is reported as “binds”.
